# From patent US8067586B2, “Fused heteroaryl derivatives” (Astellas Pharma Inc., priority 2000, dated 2011)
# System: HCT116 cells
# Assay: Colon cancer cell growth inhibition (Alamar Blue)
# Details: incubation over 72 hours, result in words
structure (smiles),measurement,value
CC(=O)Nc1cccc(-c2nc(N3CCOCC3)c3oc4ncccc4c3n2)c1,cancer cell growth inhibition activity,excellent
